Laboratory results taken from patent US20240166738A1 (priority 2021, published 2024).

Protein sequences, listed by entry. Tags and fused reporters are not part of them. Lines headed by an entry give the natural chain unless they say otherwise; changes in a name come on top. Residues count along the entry.
UniProt Q9NUM4, 122-210: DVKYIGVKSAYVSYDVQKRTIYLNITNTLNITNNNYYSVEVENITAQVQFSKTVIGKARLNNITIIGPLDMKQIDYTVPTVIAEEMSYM

B1: TM-65: anti-TMEM106B monoclonal antibody; VH SEQ ID NO: 471, VL SEQ ID NO: 507 (antibody, V domains shown)
VH: QVQLQQPGAEFVKPGASVRLSCKTSGYTFTSSWMHWVKQRPGQGLEWIGEINPKNGGTNYNEKFKTKATLTVDKSSNTAYMQLSSLTSEDSAVYYCTIPTWFTYWGQGTLVTVSS
VL: DIQMNQSPSSLSASLGDTITITCRASQNINIWLSWYQQKPGNVPKLLIYKASNLHTGVPSRFSGSGSGTGFTLTISSLQPEDIATYYCLQGQSYPYTFGGGTKLGIK
modifications: Variable Heavy Chain -- TM-65; Variable Light Chain -- TM-65
B2: TM-50: anti-TMEM106B monoclonal antibody; CDR-H1-3 SEQ ID NO: 31, 73, 115; CDR-L1-3 SEQ ID NO: 157, 183, 220 (antibody, V domains shown)
VH: QVQLKESGPVLVAPSQSLSITCTVSGFSLTNYGVHWVRQPPGKGLEWLGVIWAGGNTNYNSALMSRLSISKDNSKSQVFLKMNSLQTDDTAMYYCAKEAKLLRSYAMDYWGQGTLVTVSA
VL: DVQMTQTTSSLSASLGDRVTISCRASQDINNYLYWYQQKPDGTVKLLIYYTSMLHSGVPSRFSGSGSGTDYSLTISNLEQEDIATYFCQQGSTLMYTFGGGTKLEIK
B3: TM-8: anti-TMEM106B monoclonal antibody; CDR-H1-3 SEQ ID NO: 9, 42, 85; CDR-L1-3 SEQ ID NO: 127, 167, 191 (antibody, V domains shown)
VH: QIQLVQSGPELKKPGETVKISCKASGYTFTDYPMHWVKQAPGKGFKWMGVIYTDTGEPKYAEVFKGRFAFSLETSASTAYLQINNLKNEDTATYFCVRRLAYWGQGTLVTVSA
VL: DIKMTQSPSSMYASLGERVTITCKASQDINSYLSWFQQKPGKSPKTLIFRANRLVDGVPSRFSGSGSGQDYSLTISSLEYEDMGIYYCLQYDEFPLTFGAGTKLEMK
B4: TM-62: anti-TMEM106B monoclonal antibody; VH SEQ ID NO: 468, VL SEQ ID NO: 504 (antibody, V domains shown)
VH: QVQLQQPGTELVRPGSSVKLSCKAAGYTFTRYWMHWVKQRPIQGLEWIGNIDPSDSETQYNPKFKDKATLTVDRSSSTAYMHLSSLTSEDSAVYYCARLTTLDYAMDYWGQGTSVTVSS
VL: QIVLTQSPAIMSASPGEKVTISCSASSSVSYMYWYQQKAGSSPKPWIHRTSNLASGVPARFSGSGSGTSYSLTIRSMEAEDAATYYCQQYHSYPPTFGVGTKLELK
modifications: Variable Heavy Chain -- TM-62; Variable Light Chain -- TM-62
B5: TM-4: anti-TMEM106B monoclonal antibody; CDR-H1-3 SEQ ID NO: 5, 38, 81; CDR-L1-3 SEQ ID NO: 123, 163, 187 (antibody, V domains shown)
VH: EVQVQQSGPVLVKPGASVKMSCKASGYTFTDYYMNWVKQSHGKNLEWIGVINPYNGGTSYHQKFKGKATLTVDKSSSTAYMELNSLTSEDSAVYYCARAATVVAGFDYWGQGTTLTVSS
VL: QAVVTQESALTTSPGETVTLTCRSSTGAVTTSNYANWVQEKPDHLFTGLIGGTNNRAPGVPARFSGSLIGDKAALTITGAQTEDEAIYFCVLWYSNHLVFGGGTKLTVL
B6: TM-49: anti-TMEM106B monoclonal antibody; CDR-H1-3 SEQ ID NO: 33, 75, 117; CDR-L1-3 SEQ ID NO: 156, 182, 219 (antibody, V domains shown)
VH: B4 VH with T9A, A25S, Y32F, E57Q, Q59H, P62Q, R74K, H82Q, T100I, L102V
VL: B4 VL with A39P, A59V, R75S, V99A
B7: TM-71: anti-TMEM106B monoclonal antibody; VH SEQ ID NO: 476, VL SEQ ID NO: 512 (antibody, V domains shown)
VH: EVQLVESGGALVKPGGSLKLSCAASGFTFSNYAMSWVRQTPEKRLEWVATIGYGGSYSYYPDSVKGRFTISRDNAKNTLYLQMSSLRSEDTALYYCARQDSNYEGVWFAYWGQGTLVTVSS
VL: DIVMTQAAPSVPVTPGESVSISCRSSKSLLHTNGNTYLFWFIQRPGQSPHLLIYRKSNLASGVPDRFSGSGSGTAFTLRISRVEAEDVGVYYCMQHLEYPFTFGSGTKLEIK
modifications: Variable Heavy Chain -- TM-71; Variable Light Chain -- TM-71, TM-72

What follows are molecules tested against GST-TMEM106B (truncated, comprising amino acids 122-210 of SEQ ID NO:1) (Homo sapiens, UniProt Q9NUM4) (assay: Pre-mix epitope binning of anti-TMEM106B antibodies (Carterra / Lake Pharma)). Settings: Non-binder: not capable of binding the GST-TMEM106B fusion (assigned bin 5).
Design: key: Non-binder: an anti-TMEM106B antibody that was not capable of binding to the GST-TMEM106B polypeptide fusion used in these binning experiments (assigned bin 5)

| Molecule | Binding Community/Bin |
| --- | --- |
| B1 | Non-binder |
| B2 | Non-binder |
| B3 | Non-binder |
| B4 | Non-binder |
| B5 | Non-binder |
| B6 | Non-binder |
| B7 | Non-binder |

Changes are numbered by the printed parent chain.
